Laboratory results reported in the NIST ThermoML archive (doi:10.1016/j.jct.2009.06.011).
± gives the expanded uncertainty stated by the source.

Assay: activity coefficient (dimensionless); of the first substance listed, at infinite dilution; xn = mol fraction of the nth substance listed
Settings: 101 kPa, Liquid, Chromatography, x1 = 0

## CCCCOCCCC [dibutyl ether] + CCCC[n+]1ccc(C)cc1.O=S(=O)([N-]S(=O)(=O)C(F)(F)F)C(F)(F)F
298.15 K
  activity coefficient: 9.79 ± 0.67
308.15 K
  activity coefficient: 9.38 ± 0.64
318.15 K
  activity coefficient: 8.98 ± 0.61
328.15 K
  activity coefficient: 8.64 ± 0.59
338.15 K
  activity coefficient: 8.32 ± 0.57
348.15 K
  activity coefficient: 8.02 ± 0.55
358.15 K
  activity coefficient: 7.76 ± 0.53
368.15 K
  activity coefficient: 7.52 ± 0.51
